# Target: Tyrosine-protein kinase SYK (Homo sapiens, UniProt P43405)
# Assay: Binding affinity against Syk protein tyrosine kinase SH2 domain
# Design: species or system Escherichia coli
smiles,measurement,value
CC(=O)N[C@@H](CC(N)=O)C(=O)N[C@@H](CCC(N)=O)C(=O)N[C@@H](CC(C)C)C(=O)N[C@@H](Cc1ccc(OP(=O)(O)O)cc1)C(=O)N[C@@H](CC(N)=O)C(=O)N[C@@H](CCC(=O)O)C(=O)N[C@@H](CC(C)C)C(=O)N[C@@H](CC(N)=O)C(=O)N[C@@H](CC(C)C)C(=O)NCC(=O)N[C@@H](CCCN=C(N)N)C(=O)N[C@@H](CCCN=C(N)N)C(=O)N[C@@H](CCC(=O)O)C(=O)N[C@@H](CCC(=O)O)C(=O)N[C@@H](Cc1ccc(OP(=O)(O)O)cc1)C(=O)N[C@@H](CC(=O)O)C(=O)N[C@H](C(=O)N[C@@H](CC(C)C)C(=O)N[C@@H](CC(=O)O)C(N)=O)C(C)C,IC50,0.48 µM
